“And” between values parts separate entries of the source, which are not always exact repeats. Equal entries are not always repeated. Only a part is listed here, and it is no random draw. Inconclusive results are not listed. The source made the active and inactive calls. The call rests on the fitted dose curve; in most records, active means well fitted inhibition curve with a large enough effect; inconclusive means small, poorly fitted or top-dose-only effect; inactive means no such curve, though single readings can be large or run the other way.
Biological target: Histone-lysine N-methyltransferase EHMT2 (Homo sapiens) (UniProt Q96KQ7)
Test: qHTS Assay for Inhibitors of Histone Lysine Methyltransferase G9a; on activity, negative = inhibition: nearly all actives have a fitted effect of over 75% in size
Settings: G9a H3K9 monomethylation, AlphaScreen, 2 h
On the % scale 0 is the no-effect control and ±100 the full control effect.

Protein sequences, listed by entry. Tags and fused reporters are not part of them. Lines headed by an entry give the natural chain unless they say otherwise; changes in a name come on top.
UniProt Q96KQ7: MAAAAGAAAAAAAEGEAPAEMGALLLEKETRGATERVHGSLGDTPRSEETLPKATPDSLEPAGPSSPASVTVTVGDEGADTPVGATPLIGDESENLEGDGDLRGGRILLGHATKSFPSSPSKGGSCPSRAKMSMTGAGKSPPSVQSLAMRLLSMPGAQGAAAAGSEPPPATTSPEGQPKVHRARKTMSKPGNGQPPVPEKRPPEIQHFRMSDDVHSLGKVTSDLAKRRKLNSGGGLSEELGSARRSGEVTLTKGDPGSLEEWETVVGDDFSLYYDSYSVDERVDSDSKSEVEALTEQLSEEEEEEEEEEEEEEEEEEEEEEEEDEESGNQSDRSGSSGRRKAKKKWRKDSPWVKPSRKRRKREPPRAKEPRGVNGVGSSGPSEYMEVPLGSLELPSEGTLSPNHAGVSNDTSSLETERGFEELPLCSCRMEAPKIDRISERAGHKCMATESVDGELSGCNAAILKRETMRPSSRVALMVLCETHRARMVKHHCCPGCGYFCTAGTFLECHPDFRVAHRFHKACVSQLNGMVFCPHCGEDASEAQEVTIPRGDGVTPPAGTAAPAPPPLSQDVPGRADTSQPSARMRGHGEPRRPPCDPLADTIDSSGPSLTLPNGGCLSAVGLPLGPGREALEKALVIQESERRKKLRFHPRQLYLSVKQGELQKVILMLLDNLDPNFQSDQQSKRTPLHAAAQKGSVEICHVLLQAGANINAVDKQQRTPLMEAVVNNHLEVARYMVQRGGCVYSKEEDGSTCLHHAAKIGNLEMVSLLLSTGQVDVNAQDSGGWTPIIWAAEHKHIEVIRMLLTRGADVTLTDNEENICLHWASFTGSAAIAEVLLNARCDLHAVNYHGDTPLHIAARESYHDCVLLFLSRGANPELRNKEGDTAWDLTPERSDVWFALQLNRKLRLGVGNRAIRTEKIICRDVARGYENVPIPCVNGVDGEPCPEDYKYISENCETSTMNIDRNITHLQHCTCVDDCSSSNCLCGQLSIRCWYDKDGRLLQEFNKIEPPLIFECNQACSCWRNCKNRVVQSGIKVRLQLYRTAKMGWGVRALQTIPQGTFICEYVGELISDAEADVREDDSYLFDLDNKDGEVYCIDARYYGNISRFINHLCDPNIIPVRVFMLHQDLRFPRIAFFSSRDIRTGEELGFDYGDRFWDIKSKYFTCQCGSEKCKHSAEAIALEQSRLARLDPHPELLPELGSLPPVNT

C[C@@H](Cc1ccc(O)cc1)NC[C@@H](O)c1cc(O)cc(O)c1
activity, negative = inhibition (at 12.7 µM (top of the series)): inactive: -42.2%

CS(=N)(=O)CC[C@@H](N)C(=O)O (stereo not given in full)
activity, negative = inhibition (at 21.5 µM (top of the series)): inactive: 15.6%

CC(Cc1ccc(O)cc1)NCC(O)c1cc(O)cc(O)c1 (stereo not given)
activity, negative = inhibition (at 2.33 µM (top of the series)): inactive: -34.9% | activity, negative = inhibition (at 12.7 µM (top of the series)): inactive: 19.5% and inactive: 35.4%

CS(=N)(=O)CC[C@H](N)C(=O)O (stereo not given in full)
activity, negative = inhibition: inactive

Reference: PubChem BioAssay AID504332 (National Center for Advancing Translational Sciences (NCATS), 2011)
